Measured values taken from ChEMBL document CHEMBL2157876, “Identification of a 2-phenyl-substituted octahydrobenzo[f]quinoline as a dopamine D₃ receptor-selective full agonist ligand” (Bioorg Med Chem, 2012).

Sequences of proteins named here, by UniProt entry; tags and fusion partners are left off.
UniProt P35462, whole entry: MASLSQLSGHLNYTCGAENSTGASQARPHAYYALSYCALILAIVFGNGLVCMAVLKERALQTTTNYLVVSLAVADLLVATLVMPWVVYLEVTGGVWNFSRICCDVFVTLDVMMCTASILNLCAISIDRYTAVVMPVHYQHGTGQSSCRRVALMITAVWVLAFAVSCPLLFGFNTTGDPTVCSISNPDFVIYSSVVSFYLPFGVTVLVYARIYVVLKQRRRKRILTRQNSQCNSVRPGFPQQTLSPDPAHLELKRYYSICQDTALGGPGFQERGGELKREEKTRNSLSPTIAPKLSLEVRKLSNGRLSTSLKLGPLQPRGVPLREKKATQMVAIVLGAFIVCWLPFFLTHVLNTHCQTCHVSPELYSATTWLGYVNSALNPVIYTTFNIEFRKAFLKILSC

Biological target: D(3) dopamine receptor (Homo sapiens, UniProt P35462)
Experiment: Agonist activity at dopamine D3 receptor in human U2OS-D3 cells assessed as EA-tagged beta-arrestin translocation after 1.5 hrs by luminescence based beta-galactosidase assay relative to dopamine
Assay type: functional, cell-based

`CCCN(CCC)C1CCc2ccc(O)cc2C1` (racemic) gave an Emax of 103%.
